System: NC(=O)c1ccc[n+]([C@@H]2O[C@H](COP(=O)([O-])OP(=O)(O)OC[C@H]3O[C@@H](n4cnc5c(N)ncnc54)[C@H](O)[C@@H]3O)[C@@H](O)[C@H]2O)c1
Experiment: purified protein, by the assay type
Conditions: other: estimated, substrate NAD+, product ADPR, initial velocity/first 60 s, 25° C, pH 7.6

For “Staphylococcus aureus TirS-TIR, wild type TIR domain of TirS, SEQ ID NO:1 (Staphylococcus aureus subsp. aureus MSSA476)”, the Km was 490 µM and the Vmax was 10 µM/min.

From patent publication US12247246B2, “Identification of inhibitors of TcpC and TIR NADase activity” (Washington University, priority 2017, dated 2025)
